This note sets out measurements from patent publication EP4840856A1, “NOVEL COMPOUND AND USES THEREOF” (dated 2026).

Sequences of proteins named here, by UniProt entry; tags and fusion partners are left off.
UniProt Q04887, whole entry: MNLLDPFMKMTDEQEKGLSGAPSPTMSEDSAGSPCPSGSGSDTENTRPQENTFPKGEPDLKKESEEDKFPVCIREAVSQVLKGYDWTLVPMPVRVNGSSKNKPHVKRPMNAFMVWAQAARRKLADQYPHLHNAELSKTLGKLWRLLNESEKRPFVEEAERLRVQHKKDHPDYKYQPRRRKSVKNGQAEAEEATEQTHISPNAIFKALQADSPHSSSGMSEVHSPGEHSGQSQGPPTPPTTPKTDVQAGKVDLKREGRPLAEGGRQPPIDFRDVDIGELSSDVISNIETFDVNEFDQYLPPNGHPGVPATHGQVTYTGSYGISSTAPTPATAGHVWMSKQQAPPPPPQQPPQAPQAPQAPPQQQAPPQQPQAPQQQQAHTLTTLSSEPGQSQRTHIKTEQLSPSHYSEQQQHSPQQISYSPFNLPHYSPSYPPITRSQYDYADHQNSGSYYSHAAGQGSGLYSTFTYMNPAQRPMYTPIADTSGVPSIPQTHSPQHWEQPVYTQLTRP
UniProt P48436, whole entry: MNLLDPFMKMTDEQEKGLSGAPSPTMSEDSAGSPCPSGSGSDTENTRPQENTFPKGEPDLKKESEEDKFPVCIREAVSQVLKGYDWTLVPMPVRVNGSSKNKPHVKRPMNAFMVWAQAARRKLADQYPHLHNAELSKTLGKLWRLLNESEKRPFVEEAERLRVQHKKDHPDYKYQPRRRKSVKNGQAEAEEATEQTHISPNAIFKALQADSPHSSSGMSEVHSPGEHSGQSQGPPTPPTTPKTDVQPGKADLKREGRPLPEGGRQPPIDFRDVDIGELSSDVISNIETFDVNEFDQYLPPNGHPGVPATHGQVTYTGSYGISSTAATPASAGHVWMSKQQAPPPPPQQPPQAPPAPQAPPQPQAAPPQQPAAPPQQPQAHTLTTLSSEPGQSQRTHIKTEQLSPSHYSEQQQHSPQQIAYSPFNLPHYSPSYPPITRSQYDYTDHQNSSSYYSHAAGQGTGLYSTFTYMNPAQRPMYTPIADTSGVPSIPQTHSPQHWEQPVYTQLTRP

Assay [1] has as its target T1, SOX9 (Mus musculus, UniProt Q04887). The assay is described as follows: SOX9 transcriptional activity luciferase assay (4X48pCol2a1-Luciferase / Renilla). As to conditions: for SOX9 activity: luminescence from the luciferase relative to DMSO, mouse primary chondrocytes, final concentration 7.5 mM as printed, 48 hours; for increase of SOX9 transcriptional activity: luciferase plasmid responding specifically to SOX9 transcriptional activity, FIG. 3b. The procedure: To confirm whether the compounds would enhance the SOX9 transcriptional activity, a luciferase assay capable of measuring SOX9 transcriptional activity was carried out using the following experimental method.
Mouse primary chondrocytes were extracted from mouse cartilage. The extracted cells were stabilized in a low-oxygen-environment incubator (O2 3%, CO2 5%). Here, the medium used was DMEM (Dulbecco Modified Eagle Medium, LM001-05, Welgene) supplemented with 10% FBS (fetal bovine serum, Gibco).
After cell stabilization, hyaluronidase type I-S (Sigma-Aldrich, Hase) was treated for 4 hours for transfection of the luciferase plasmid.
For transfection, Metafectene pro reagent (Biontex) was used to co-treat cells for 6 hours with the 4X48pCol2al-Luciferase plasmid, the expression of which is promoted by SOX9 transcriptional activity, and a Renilla luciferase plasmid, which is constitutively expressed as a transfection control. The 4X48pCol2a1-Luciferase plasmid and Renilla luciferase plasmid were as described in Kim, S. et al. "Tankyrase inhibition preserves osteoarthritic cartilage by coordinating cartilage matrix anabolism via effects on SOX9 PARylation," Nat Commun 10, 4898 (2019).
After 6 hours, the medium was replaced with a culture medium containing the compound. Here, each compound was dissolved in DMSO at a level of about 5 mM to 10 mM and dissolved in the medium to provide a final concentration of 7.5 mM.
After 48 hours, the cells were lysed and reacted with the luciferase substrate using a Dual Luciferase Assay Kit (Promega), and luminescence from the luciferase (relative to DMSO) was measured using a microplate reader. The results were classified according to the criteria below and shown in Table 6, providing the graph of FIG. 1.

The target in assay [2] is SOX9 (Homo sapiens, UniProt P48436). The assay can be described thus: SOX9 condensation in SOX9-eGFP overexpressing cell lysate, confocal fluorescence imaging. As to conditions: 1 hour at room temperature, compared to DMSO, FIG. 3a. As to the method:
In a 100-mm dish, 9 × 10^5 cells to be transfected were seeded and grown for two days in a cell incubator. The grown cells were transfected with 7 µg of an SOX9-eGFP plasmid capable of overexpression in cells, using a transfection reagent (Poly-jet). Here, the cells were exposed to an FBS-free DMEM medium for 30 minutes. After 30 minutes, the SOX9-eGFP plasmid and Polyjet were mixed in DMEM and added to the cells after waiting for 10 minutes. After reacting in the incubator for 4 hours, an FBS-containing DMEM medium was added, and the cells were placed in the incubator for two days. Thereafter, the cells were detached using a scraper and centrifuged. Only the cell pellets were frozen in liquid nitrogen and stored in a -80°C freezer.
A cell lysis buffer containing 0.2% Triton X-100, 1 mM EDTA, 50 mM HEPES, 150 mM NaCl, 10% glycerol, 1% protease inhibitor cocktail, 1% phosphatase inhibitor cocktail (tyrosine, serine/threonine), and 2 mM TCEP was added to the cell pellets to disperse the pellets. […] The total protein concentration of the supernatant obtained was measured using a DC (detergent-compatible) assay, and the SOX9-eGFP concentration was measured using a fluorometer. The cell lysate, with its concentration measured, was used immediately or frozen in liquid nitrogen and stored at -80°C. […]
The fluorescence images taken were analyzed using an in-house MATLAB code. […]

A further assay has as its system SOX9 variants. The assay is described as follows: Condensation in cell lysates of SOX9 deletion variants and aromatic amino acid mutants. The procedure: Specifically, based on Compound C9, which had been confirmed to be the most efficacious, the binding site of the drug was investigated. SOX9 is divided into structured and unstructured regions; in particular, IDR as an unstructured region is so large as to constitute about 80% of the protein (FIG. 5a). To investigate which region of interaction induces the condensation effect of Compound C9, SOX9 variants in which each region was deleted were prepared. As in the above Experimental Examples, cell lysates of the SOX9 variants were prepared, and it was confirmed that when C9 was deleted in the IDR region corresponding to the C-terminus of the protein, the condensation phenomenon was lost (FIG. 5b). Furthermore, in order to narrow down the binding site, deletion variants were constructed at 35-amino acid intervals across the C-terminal region, and cell lysates of the variants were prepared and examined. Here, when the regions corresponding to regions 8 and 9, where aromatic amino acids are clustered, were deleted, the condensation phenomenon was confirmed to decrease sharply (FIG. 5c).
Cell lysates expressing mutants in which aromatic amino acids were substituted with alanine were prepared, and the importance of aromatic amino acids was confirmed. As in the case of the variants in which regions 8 and 9 were deleted, mutations of aromatic amino acids corresponding to regions 8 and 9 reduced the condensation phenomenon induced by Compound C9 (FIG. 6). It was confirmed through this that Compound C9 induces SOX9 condensation through interaction with the region where aromatic amino acids are clustered, in the unstructured region of the C-terminus of SOX9.

In another assay the test system is SOX9 target genes. The assay can be described thus: mRNA levels of SOX9 target genes (qPCR). The following applies: compared to DMSO; FIG. 10.
In assay [3] the target is T1, SOX9. The assay can be described thus: Cut&Tag of SOX9 binding to DNA. The following applies: DMSO subtracted, FIGS. 14a to 14f. As to the method:
To investigate whether the SOX9 condensates altered by the drug are actually involved in transcriptional activity, a Cut&Tag experiment was performed to identify genome-wide DNA regions bound by SOX9. It was confirmed that SOX9 binding to DNA was increased upon drug treatment (FIG. 13).

Assay [4] concerns mouse model of osteoarthritis (OA) induced by DMM (destabilization of the medial meniscus) surgery. The assay can be described thus: Recovery of cartilage tissue in DMM osteoarthritis mouse model. The following applies: intra-articular injection 7 times at 1 week intervals, intra-articular concentration 750 µM, vs DMSO. The procedure: In order to confirm whether Compound C9 helps cartilage formation, an experiment was performed in which Compound C9 was injected intra-articularly a total of 7 times at intervals of 1 week so that the intra-articular concentration was 750 µM, in a mouse model of osteoarthritis (OA) induced by DMM (destabilization of the medial meniscus) surgery (FIG. 15a). […] To objectively evaluate the recovery of cartilage tissue, the OARSI Grade (a higher grade indicates greater damage to the cartilage tissue) was assessed through blinded testing by individual researchers.

In assay [5] the test system is DMM-induced osteoarthritis (OA) mice. The assay is described as follows: Weight-bearing behavioral experiment in DMM osteoarthritis mice. The following applies: change significant relative to DMSO-treated group, FIG. 16. The procedure: To confirm the recovery of osteoarthritis at the behavioral level, weight-bearing and Von-Frey behavioral experiments were performed. The weight-bearing experiment is an experiment that measures the degree to which the operated leg or non-operated leg bears weight upon drug treatment, to confirm the change in the degree of weight-bearing upon treatment with Compound C9 (FIG. 16).

In a further assay the test system is OA-induced mice. The assay is described as follows: Von-Frey behavioral experiment in osteoarthritis mice. As to conditions: FIG. 17. An excerpt: The Von-Frey behavioral experiment assesses cartilage recovery in mice by gently stimulating the plantar surface of the paws and recording the stimulus intensity at which the mice withdraw their paws as the stimulation increases (FIG. 17). When cartilage recovery improves, the intensity of the stimulus that the mice can endure increases.

Regarding `COc1ccc(CCNC(=O)CCC(=O)Nc2nc(-c3cc4ccc(N(C)C)cc4oc3=O)cs2)cc1OC`, the SOX9 activity result on SOX9 [1] was “++ (less than 5, 2 or more)”.

Regarding “N^1-(4-((5,6-dimethoxy-1-oxo-2,3-dihydro-1H-indene-2-yl)methyl)piperidin-1-yl)-N^4-(4-(7-methoxycoumarin-3-yl)thiazol-2-yl)succinamide”, the SOX9 activity result on SOX9 [1] is “++ (less than 5, 2 or more)”.

Take `O=C(CCC(=O)Nc1nc(-c2cc3cccc(O)c3oc2=O)cs1)NCCc1ccncc1`: on SOX9 [1], the SOX9 activity entry was “++ (less than 5, 2 or more)”.

As for `COc1ccc(CCNC(=O)CCC(=O)Nc2nc(-c3cc4ccc(O)cc4oc3=O)cs2)cc1OC`, the SOX9 activity entry on SOX9 [1] is “++ (less than 5, 2 or more)”.

Turning to `O=C(CCC(=O)Nc1nc(-c2cc3ccc(Br)cc3oc2=O)cs1)NCCc1ccncc1`, the SOX9 activity result at SOX9 [1] is “++ (less than 5, 2 or more)”.

In the case of `COc1ccc2cc(-c3csc(NC(=O)CCC(=O)NCCc4cccs4)n3)c(=O)oc2c1`, the SOX9 activity entry on SOX9 [1] is “++ (less than 5, 2 or more)”.

On to `COc1ccc2cc(-c3csc(NC(=O)CCC(=O)NCCc4ccc(S(=O)(=O)F)cc4)n3)c(=O)oc2c1`, for which, on SOX9 [1], the SOX9 activity entry is reported as “++ (less than 5, 2 or more)”.

Consider `COc1ccc2cc(-c3csc(NC(=O)CCC(=O)NCCc4ccncc4)n3)c(=O)oc2c1`, for which, at SOX9 [1], the “increase of SOX9 transcriptional activity” value was “about 8 fold” and the SOX9 activity entry was “++++ (8 or more)”. Besides, the “induction of SOX9 condensation” value on SOX9 [2] is recorded as “induced the condensation of SOX9”. Besides, the “SOX9 condensation with deletion of the IDR region at the C-terminus” value in the assay on SOX9 variants (SOX9 deletion variant lysates, FIG. 5b) was “the condensation phenomenon was lost”. For the same compound, in the assay with SOX9 variants (deletion variants at 35-amino acid intervals across the C-terminal region, FIG. 5c), the “SOX9 condensation with deletion of C-terminal regions 8 and 9” value was “decrease sharply”. The “SOX9 condensation with aromatic amino acids of regions 8 and 9 substituted with alanine” value in the assay with SOX9 variants (mutant cell lysates, FIG. 6) is “reduced the condensation phenomenon”. In the assay on SOX9 target genes, the “mRNA levels of Col9a1, Acan and SOX9” value is given as “highly upregulated”. Also, at SOX9 [3], the “SOX9 binding to DNA of Col9a1, Acan and Comp” value is reported as “increase binding at specific regions of the DNA”; the “SOX9 binding to DNA of SOX9, Col2a1 and Chad” value is “increase SOX9 binding throughout the DNA”. In addition, the OARSI grade entry in assay [4] (blinded, FIG. 15c) is on record as “statistically significantly lower”. Further, the “recovery of damaged cartilage tissue” value in assay [4] (FIG. 15b) is on record as “the damaged cartilage tissue was found to have recovered”. The weight-bearing levels entry in assay [5] is listed as “comparable to those observed in non-OA-induced mice”. Besides, the “stimulus intensity endured (Von-Frey)” value in the assay on OA-induced mice is “able to endure greater stimulus intensity”.

As for `COc1ccc2cc(-c3csc(NC(=O)CCC(=O)NCCc4ccc5c(c4)OCO5)n3)c(=O)oc2c1`, at SOX9 [1], the SOX9 activity entry is “++ (less than 5, 2 or more)”.

Regarding `COc1ccc2cc(-c3coc(NC(=O)CCC(=O)NCCc4ccncc4)n3)c(=O)oc2c1`, at SOX9 [1], the SOX9 activity entry is listed as “+ (less than 2, greater than 1)”.

For `O=C(CCC(=O)Nc1ncc(C(=O)c2ccccc2)s1)NCCc1ccncc1`, at SOX9 [1], the SOX9 activity result is given as “++ (less than 5, 2 or more)”.

Turning to `O=C(CCC(=O)Nc1nc(-c2ccc(F)cc2F)cs1)NCCc1ccncc1`, the SOX9 activity entry on SOX9 [1] is on record as “+ (less than 2, greater than 1)”.

Take `COc1ccc2cc(-c3csc(NC(=O)CCC(=O)Nc4cccc5cccnc45)n3)c(=O)oc2c1`: on SOX9 [1], the SOX9 activity result is on record as “++++ (8 or more)”.

As for `COc1ccc2cc(-c3csc(NC(=O)CCC(=O)NCCc4ccc5ccccc5c4)n3)c(=O)oc2c1`, at SOX9 [1], the SOX9 activity result was “++ (less than 5, 2 or more)”.

In the case of `COc1ccc2cc(-c3csc(NC(=O)CCC(=O)NCCc4ccc(Cl)c(Cl)c4)n3)c(=O)oc2c1`, the SOX9 activity entry at SOX9 [1] is listed as “++ (less than 5, 2 or more)”.

On to `COc1cccc2cc(-c3csc(NC(=O)CCC(=O)NCCc4ccncc4)n3)c(=O)oc12`, for which the SOX9 activity result on SOX9 [1] is reported as “+++ (less than 8, 5 or more)”.

As for `COc1ccc(CCNC(=O)CCC(=O)Nc2nc(-c3ccc(C)cc3)cs2)cc1OC`, the SOX9 activity result at SOX9 [1] was “+ (less than 2, greater than 1)”.

As for `COc1ccc2cc(-c3csc(NC(=O)CCC(=O)NCCc4ccc(OC)c(OC)c4)n3)c(=O)oc2c1`, on SOX9 [1], the “increase of SOX9 transcriptional activity” value was “approximately 2 fold” and the SOX9 activity result is “++ (less than 5, 2 or more)”. Further, the “induction of SOX9 condensation” value on SOX9 [2] was “induced the condensation of SOX9”.
